Data from US20050038102A1, “Upregulation of type III endothelial cell Nitric Oxide Synthase by HMG-CoA reductase inhibitors” (BRIGHAM AND WOMENS HOSPITAL, priority 1997, published 2005).

System: human endothelial cell
Settings: after 36 h

Question: With CC[C@H](C)C(=O)O[C@H]1C[C@@H](C)C=C2C=C[C@H](C)[C@H](CC[C@@H]3C[C@@H](O)CC(=O)O3)[C@H]21 [lovastatin] as the compound, how does the concentration causing cytotoxicity read?
Answer: The concentration causing cytotoxicity was over 50000 µM.
